{"sequences": {"note": "Protein sequences, listed by entry. Tags and fused reporters are not part of them. Lines headed by an entry give the natural chain unless they say otherwise; changes in a name come on top.", "UniProt O75469": "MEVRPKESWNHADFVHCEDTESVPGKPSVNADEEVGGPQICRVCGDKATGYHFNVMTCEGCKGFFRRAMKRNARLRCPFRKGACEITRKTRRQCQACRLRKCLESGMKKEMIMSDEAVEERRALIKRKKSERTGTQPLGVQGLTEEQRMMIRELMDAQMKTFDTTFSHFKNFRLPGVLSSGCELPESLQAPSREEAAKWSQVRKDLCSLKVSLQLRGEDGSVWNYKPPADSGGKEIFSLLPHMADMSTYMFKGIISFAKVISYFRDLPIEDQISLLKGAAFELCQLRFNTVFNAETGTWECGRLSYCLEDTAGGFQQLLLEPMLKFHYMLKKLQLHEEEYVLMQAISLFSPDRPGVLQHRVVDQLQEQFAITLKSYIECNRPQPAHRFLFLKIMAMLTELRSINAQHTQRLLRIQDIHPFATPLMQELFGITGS"}, "source": "paper PMC2957921", "about": "“Evaluation of Computational Docking to Identify Pregnane X Receptor Agonists in the ToxCast Database” (Environmental Health Perspectives, 2010)", "origin": "cited, not measured here", "biological_target": "hPXR (Homo sapiens, UniProt O75469)", "conditions": "DPX-2 cells, ref Judson et al. 2010, cited from earlier work", "data": [{"smiles": "CC(C)OP(=S)(OC(C)C)SCCNS(=O)(=O)c1ccccc1", "values": [{"measurement": "U.S. EPA ToxCast (NCGC) hPXR DPX-2 classification", "setting": "cutoff for activity 200 μM", "result": "A (A, agonist)"}, {"measurement": "EC50", "setting": "read-out: U.S. EPA ToxCast (NCGC) hPXR DPX-2 EC50", "result": 1570, "unit": "nM"}]}]}
